This note sets out measurements from patent US9427001B2, “Enhanced bioavailable iodine molecules” (ZINPRO CORPORATION, priority 2011, dated 2016).

Regarding Zinc Glycine Iodide [Example IV], the “Average Serum iodine level (day 2-day 14)” value (in vivo) was found to be 380. The “Serum iodine Day 10 (last treatment day)” value (nonlactating pregnant beef cows, 60 mg Iodine/day for 10 days) is recorded as 637.
